From patent US20170275302A1, “INHIBITORS OF THE RENAL OUTER MEDULLARY POTASSIUM CHANNEL” (Merck Sharp & Dohme Corp., priority 2014, published 2017)
pIC50: −log10 of the molar value.

Chains of the proteins cited; added tags and fusions are not shown.
UniProt P48048, whole entry: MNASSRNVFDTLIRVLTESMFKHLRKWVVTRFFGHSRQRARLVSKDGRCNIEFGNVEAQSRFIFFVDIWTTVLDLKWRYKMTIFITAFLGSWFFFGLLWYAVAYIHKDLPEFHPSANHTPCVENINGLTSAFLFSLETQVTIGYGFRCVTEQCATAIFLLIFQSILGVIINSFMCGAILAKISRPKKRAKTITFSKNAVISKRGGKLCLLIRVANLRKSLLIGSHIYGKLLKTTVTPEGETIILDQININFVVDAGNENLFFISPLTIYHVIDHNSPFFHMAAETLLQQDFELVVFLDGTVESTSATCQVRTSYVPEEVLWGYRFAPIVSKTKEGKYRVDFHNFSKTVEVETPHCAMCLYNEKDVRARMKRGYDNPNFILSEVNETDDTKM

Target: hROMK (hKir1.1) (Homo sapiens, UniProt P48048)
Assay: Thallium Flux Assay (ROMK channel functional thallium flux assay, FLIPR-Tetra)
Conditions: HEK293 cells stably expressing hROMK (hKir1.1); FluxOR thallium flux, 30 min compound incubation; concentration inhibiting 50% of ROMK thallium flux signal

Cc1c([C@@H](O)CN2CCC3(CC2)CCN(c2ccc4c(c2)C[C@@H](C)OC4=O)C3)ccc2c1COC2=O
pIC50: 7.03
